Measurements published in patent US10137210B2, “Thioflavin derivatives for use in antemortem diagnosis of Alzheimer's disease and in vivo imaging and prevention of amyloid deposition” (UNIVERSITY OF PITTSBURGH—OF THE COMMONWEALTH SYSTEM OF …, priority 2000, dated 2018).

Experiments:
[1] = tested on: plaques and cerebrovascular amyloid; experiment: Autoradiography of [I-125]6-OH-BTA-0-3′-I on fresh frozen post-mortem AD brain versus X-34 stain; format: binding, human
Description: Left: autoradiogram of [I-125]6-OH-BTA-0-3′-I binding to fresh frozen tissue from post-mortem AD brain. The dark areas show the localization of [I-125]6-OH-BTA-0-3′-I and are outlined in red. The structure of [I-125]6-OH-BTA-0-3′-I is shown in the lower left. Right: The same piece of post-mortem AD brain tissue stained with the amyloid dye, X-34. Bright areas indicate plaques and cerebrovascular amyloid. […] Bar represents 1000 μm.

[2] = In vivo brain uptake and retention in mice; set-up: species or system mouse; conditions: Table 1 lower part
Description: In Table 1 below are five different ^11C-labeled BTA derivatives where their in vitro binding properties, log P values, and in vivo brain uptake and retention properties in mice have been determined.

Row | correspondence of binding to plaques and cerebrovascular amyloid stained by X-34 [1] | 2:30 min ratio [2] | SMILES
1 | nearly 1:1 correspondence |  | Nc1ccc(-c2nc3ccc(O)cc3s2)cc1[125I] [[I-125]6-OH-BTA-0-3′-I, 2-(3′-Iodo-4′-aminophenyl)-6-hydroxybenzathiazole]
2 |  | 15.7 | Nc1ccc(-c2nc3ccc(O)cc3s2)cc1[125I] [drawing 25]
